Measurements taken from US9884844B2 (priority 2012, dated 2018).

The chains behind the UniProt entries cited, without tags or fusion partners. Where a name states a change or a piece, a line headed by the entry shows the natural chain unless it says otherwise.
UniProt P41146: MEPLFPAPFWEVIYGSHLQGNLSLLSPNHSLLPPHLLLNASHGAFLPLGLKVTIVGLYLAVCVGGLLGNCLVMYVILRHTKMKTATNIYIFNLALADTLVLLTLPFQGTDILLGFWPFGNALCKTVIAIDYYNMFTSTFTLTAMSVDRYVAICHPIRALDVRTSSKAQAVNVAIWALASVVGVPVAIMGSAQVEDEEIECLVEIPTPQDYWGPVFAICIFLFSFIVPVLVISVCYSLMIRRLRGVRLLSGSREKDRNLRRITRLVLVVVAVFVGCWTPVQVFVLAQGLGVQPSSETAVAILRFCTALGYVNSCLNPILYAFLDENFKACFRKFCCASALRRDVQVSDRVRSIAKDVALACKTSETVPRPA

What follows are compounds tested against human NOP (Homo sapiens, UniProt P41146) (assay: cAMP assay on cells expressing human NOP (NOP assay)). Conditions: read-out: NOP EC50, HEK cells expressing human NOP.
`CNC(=O)CC1(C)C(=O)N(C2CCN(CCC(Oc3cc(OC)ccc3Cl)C(C)C)CC2)c2ccccc21` (centres unmarked) was tested, and the EC50 was < 100 nM.
In the case of `O=C1NCC(CC2C(=O)N(C3CCN(C4Cc5cccc6cccc4c56)CC3)c3ccccc32)O1` (centres unmarked), the EC50 is reported as < 100 nM.
In the case of `CNC(=O)C[C@]1(C)C(=O)N(C2CCN([C@@H]3Cc4cccc5cccc3c45)CC2)c2ccccc21`, the EC50 is reported as < 100 nM.
In the case of `CNC(=O)CC1(C)C(=O)N(C2CCN(C3(C)CCCc4ccccc43)CC2)c2ccccc21` (centres unmarked), the EC50 is reported as < 100 nM.
`CNC(=O)C[C@]1(C)C(=O)N(C2CCN([C@@H]3c4ccccc4CC[C@H]3O)CC2)c2ccccc21` was tested, and the EC50 was > 5000 nM.
For `NCC(O)CC1(O)C(=O)N(C2CCN(C3Cc4cccc5cccc3c45)CC2)c2ccccc21` (centres unmarked), the EC50 was < 100 nM.
With `COC(=O)CC1C(=O)N(C2CCN(C3(C)CCCc4ccccc43)CC2)c2ccccc21` (centres unmarked) the EC50 was < 100 nM.
In the case of `CNC(=O)CC1C(=O)N(C2CCN(Cc3cccc4cccc(C)c34)CC2)c2ccccc21` (centres unmarked), the EC50 is reported as < 100 nM.
For `CNCC(O)CC1(C)C(=O)N(C2CCN(C3Cc4cccc5cccc3c45)CC2)c2ccccc21` (centres unmarked), the EC50 was > 5000 nM.
For `COCCC1(O)C(=O)N(C2CCN([C@@H]3Cc4cccc5cccc3c45)CC2)c2ccccc21` (some centres unmarked), the EC50 was > 5000 nM.
`CNC(=O)CCC1(O)C(=O)N(C2CCN(C3Cc4cccc5cccc3c45)CC2)c2ccccc21` (centres unmarked) was tested, and the EC50 was < 100 nM.
`CNC(=O)CCC1(C)C(=O)N(C2CCN(C3Cc4cccc5cccc3c45)CC2)c2ccccc21` (centres unmarked) was tested, and the EC50 was < 100 nM.
In the case of `CC1(Cc2ncco2)C(=O)N(C2CCN(C3c4cccc5cccc(c45)C3O)CC2)c2ccccc21` (centres unmarked), the EC50 is reported as > 5000 nM.
In the case of `COCCC1(C)C(=O)N(C2CCN([C@@H]3Cc4cccc5cccc3c45)CC2)c2ccccc21` (some centres unmarked), the EC50 is reported as < 100 nM.
`O=C1N(C2CCN(C3Cc4cccc5cccc3c45)CC2)c2ccccc2C1(O)CCO` (centres unmarked) was tested, and the EC50 was > 5000 nM.
With `Cc1cccc2cccc(CN3CCC(N4C(=O)C(O)(CC5CNC(=O)O5)c5ccccc54)CC3)c12` (centres unmarked) the EC50 was 1000 to 5000 nM.
`CNC(=O)CC1(O)C(=O)N(C2CCN(Cc3cccc4cccc(C)c34)CC2)c2ccccc21` (centres unmarked) was tested, and the EC50 was < 100 nM.
With `CNC(=O)C[C@]1(C)C(=O)N(C2CCN([C@@]3(C)Cc4cccc5cccc3c45)CC2)c2ccccc21` (single isomer, unassigned) the EC50 was < 100 nM.
`CNC(=O)C[C@@]1(O)C(=O)N(C2CCN([C@H]3c4cccc5cccc(c45)[C@@H]3O)CC2)c2ccccc21` was tested, and the EC50 was < 100 nM.
In the case of `CCOC(=O)CC1C(=O)N(C2CCN([C@H]3c4cccc5cccc(c45)[C@H]3C)CC2)c2ccccc21` (some centres unmarked), the EC50 is reported as 100 to 1000 nM.
In the case of `CNC(=O)CC1C(=O)N(C2CCN(C3(C)CCCc4ccccc43)CC2)c2ccccc21` (centres unmarked), the EC50 is reported as < 100 nM.
For `CNC(=O)C[C@H]1C(=O)N(C2CCN(C3Cc4cccc5cccc3c45)CC2)c2ccccc21` (some centres unmarked), the EC50 was < 100 nM.
With `CN1CC2(C(=O)N(C3CCN(C4Cc5cccc6cccc4c56)CC3)c3ccccc32)N(C)C1=O` (centres unmarked) the EC50 was < 100 nM.
`CNC(=O)C[C@@]1(C)C(=O)N(C2CCN([C@@H]3c4ccccc4CC[C@H]3O)CC2)c2ccccc21` was tested, and the EC50 was > 5000 nM.
For `CNC(=O)OC1C(=O)N(C2CCN(C3Cc4cccc5cccc3c45)CC2)c2ccccc21` (centres unmarked), the EC50 was < 100 nM.
`CN(C)C(=O)CC1(O)C(=O)N(C2CCN(C3Cc4cccc5cccc3c45)CC2)c2ccccc21` (centres unmarked) showed an EC50 of 100 to 1000 nM.
For `Cc1cccc2cccc(CN3CCC(N4C(=O)C(O)(CC(O)CN)c5ccccc54)CC3)c12` (centres unmarked), the EC50 was 1000 to 5000 nM.
In the case of `CNC(=O)C[C@@]1(C)C(=O)N(C2CCN([C@H]3c4cccc5cccc(c45)C3(F)F)CC2)c2ccccc21`, the EC50 is reported as 100 to 1000 nM.
Work on `CNC(=O)CC1(O)C(=O)N(C2CCN(C3c4cccc5cccc(c45)C3(C)C)CC2)c2ccccc21` (centres unmarked) yielded an EC50 of 100 to 1000 nM.
For `O=C1N(C2CCN(C3Cc4cccc5cccc3c45)CC2)c2ccccc2C1(O)Cc1ncco1` (centres unmarked), the EC50 was > 5000 nM.
With `CNC(=O)CC1(OC)C(=O)N(C2CCN([C@H]3c4cccc5cccc(c45)[C@@H]3O)CC2)c2ccccc21` (some centres unmarked) the EC50 was < 100 nM.
For `Cc1cccc2cccc(CN3CCC(N4C(=O)C(C)(CC5CNC(=O)O5)c5ccccc54)CC3)c12` (centres unmarked), the EC50 was > 5000 nM.
In the case of `CNC(=O)CC1(O)C(=O)N(C2CCN(C3(C)CCc4ccccc43)CC2)c2ccccc21` (centres unmarked), the EC50 is reported as < 100 nM.
`Cn1cnc(CC2(C)C(=O)N(C3CCN(C4c5cccc6cccc(c56)C4O)CC3)c3ccccc32)n1` (centres unmarked) was tested, and the EC50 was > 5000 nM.
For `CN(C)CC(O)CC1(C)C(=O)N(C2CCN(C3Cc4cccc5cccc3c45)CC2)c2ccccc21` (centres unmarked), the EC50 was > 5000 nM.
